Experimental data: ChEMBL document CHEMBL4819145, “Synthesis and evaluation of bifunctional PTP4A3 phosphatase inhibitors activating the ER stress pathway” (Bioorg Med Chem Lett, 2021)

Test system: MDA-MB-231
Assay: cells
Conditions: Homo sapiens, MDA-MB-231, 72 h

N=C1C(=O)NC(=O)c2cc(-c3ccc(OCCCCNC(=O)CC45CC6CC(CC(C6)C4)C5)cc3)sc21 gave an EC50 of 8.6 µM.
